# Measurements: patent publication US10071163B2, “Compositions and methods for selective delivery of oligonucleotide molecules to specific neuron types” (nLife Therapeutics, S.L., priority 2010, dated 2018)
# Sequences of proteins named here, by UniProt entry; tags and fusion partners are left off.
# UniProt Q60857, whole entry: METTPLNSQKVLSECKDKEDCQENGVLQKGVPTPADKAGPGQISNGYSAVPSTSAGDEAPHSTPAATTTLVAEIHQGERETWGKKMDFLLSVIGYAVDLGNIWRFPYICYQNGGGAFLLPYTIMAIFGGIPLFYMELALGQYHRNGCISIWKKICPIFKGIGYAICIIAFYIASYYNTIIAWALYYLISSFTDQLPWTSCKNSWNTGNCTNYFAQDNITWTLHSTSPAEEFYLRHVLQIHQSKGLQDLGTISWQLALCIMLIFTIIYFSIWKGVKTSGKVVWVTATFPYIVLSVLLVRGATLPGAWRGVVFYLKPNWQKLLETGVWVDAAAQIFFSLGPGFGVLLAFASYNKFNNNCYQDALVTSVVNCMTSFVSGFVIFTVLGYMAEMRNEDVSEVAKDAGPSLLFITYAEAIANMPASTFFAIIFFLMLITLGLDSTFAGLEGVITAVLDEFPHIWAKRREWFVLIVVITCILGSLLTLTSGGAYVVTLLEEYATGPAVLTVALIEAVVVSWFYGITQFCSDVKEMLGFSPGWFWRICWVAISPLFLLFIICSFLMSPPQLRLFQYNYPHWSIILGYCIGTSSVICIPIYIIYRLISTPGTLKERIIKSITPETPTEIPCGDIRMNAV
# Target: T1, 5-HTT (Mus musculus, UniProt Q60857)
# T1 construct: from tissue; host or cells: mouse brain (raphe nuclei, striatum and other regions): living animal or frozen sections
# Experiment: Microdialysis of 5-HT in dorsal striatum after fluoxetine or local citalopram, intranasal 5-HTT-NLF-siRNA
# Assay type: in vivo, mice (C57BL/6J)
# Conditions: intranasal 10 and 30 μg
substance,measurement,setting,value
5-HTT-NLF-siRNA: 5-HTT-targeted siRNA (SEQ ID NO 14/15) conjugated to a group of formula (I) and one targeting agent (sertraline) (chain 1 GCUAGCUACAACAAGUUCATT; chain 2 UGAACUUGUUGUAGCUAGCTT; further chemistry not given here),local citalopram effect on 5-HT levels in striatum of siRNA-treated mice,"citalopram 1-10-50 μM local, FIG. 16B",only at 50 μM produced a light increase
same,fluoxetine-induced increase of 5-HT level in dorsal striatum of siRNA-treated mice,"fluoxetine 20 mg/kg i.p., FIG. 16A",not in 5-HTT-NLF-siRNA groups
